Molecules are shown by their SMILES. The list shows a part of the results, in another mix than the full data. The source made the active and inactive calls.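 Rule for the calls: active = activation above the mean over all tested compounds plus 3 SD (cut at about 30% in these data); inactive = the rest.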

For the test, the target named is Troponin I, cardiac muscle (Homo sapiens) + Troponin T, cardiac muscle (Homo sapiens) + Troponin C, slow skeletal and cardiac muscles (Homo sapiens) (UniProt P19429+P45379+P63316). The experiment in a line: calcium sensitizers of cardiac thin filaments – biochemical, IANBD-TnC fluorescence, EC20 calcium, primary screen (AID 493008).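 Note: rise in fluorescence read as greater calcium sensitivity of cardiac thin filaments.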 Conditions: IANBD-labeled TnC RTF fluorescence at EC20 calcium; at 7.2 µM; active compounds read high; 0% EC20 calcium, 100% full calcium.
`CCC(=O)N(c1ccccc1)C1(COC)CCN(CCn2nnn(CC)c2=O)CC1`: the activation was inactive: -6.34%. As to `CCC(=O)N(c1ccccc1)C1(COC)CCN(CCc2cccs2)CC1`, the activation is inactive: -4.51%.

Values taken from PubChem BioAssay AID493008 (The Scripps Research Institute Molecular Screening Center, 2010).
